# Experimental melting point values from OPERA 2.9

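OPERA's authors assembled the values from existing databases and did not measure them anew. A listed value is a point estimate from one report or more. Conditions of the individual experiments are not part of the data. A value may pool stereoisomers or salt forms, and the file does not say which form was measured. Some upstream entries may be estimates or bounds without being marked so.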

Melting points are in °C.
Cells with "–" have no entry in this list.
The databases behind each value are named after "via".

SMILES | name | melting point (°C) | via
CCOc1ccc(S(N)(=O)=O)cc1OCC | 3,4-diethoxybenzenesulfonamide | 153 | OCHEM
N=C(O)C1CNCCN1 (stereo not given) | Piperazine-2-carboximidic acid | 143 | OCHEM
C[C@]12CC(=O)[C@H]3[C@@H](CCC4=CC(=O)CC[C@@]43C)[C@@H]1CC[C@@H]2C(=O)CO | 21-Hydroxypregn-4-ene-3,11,20-trione | 184 | OCHEM
Clc1ccc(Oc2ccc(Cl)c(Cl)c2Cl)c(Cl)c1 | 2,2',3,4,4'-Pentachlorodiphenylether | 66 | QSARDB
O=C(O)CCc1nc2ccccc2[nH]c1=O | 3-Hydroxy-2-quinoxalinepropionic acid | 264 | OCHEM
CCCCCCCCCCC(=O)CCCCC | Hexadecan-6-one | 36.5 | OCHEM
CCNS(=O)(=O)c1ccc(C(=O)O)cc1 | 4-[(Ethylamino)sulfonyl]benzoic acid | 220 | OCHEM
CCOC(=O)c1c(-c2ccc(OC)c(OC)c2)csc1N | ethyl 2-amino-4-(3,4-dimethoxyphenyl)thiophene-3-carboxylate | 224 | OCHEM
CCOC(=O)c1ccc([N+](=O)[O-])o1 | 2-Furoic acid, 5-nitro-, ethyl ester | 99.5 | OCHEM
CC(=O)c1ccc2[nH]c(=O)[nH]c2c1 | 5-Acetyl-1,3-dihydro-2H-benzimidazol-2-one | 265 | OCHEM
CC(O)(c1ccccc1)c1ccccn1.Cl (stereo not given) | 1-Phenyl-1-(pyridin-2-yl)ethanol hydrochloride | 193 | eChemPortal
COc1ccc2c(CCl)cc(=O)oc2c1 | 4-Chloromethyl-7-methoxy-chromen-2-one | 190 | OCHEM
O=C(O)c1ccc2[nH]c(=O)[nH]c2c1 | 2-Oxo-2,3-dihydro-1H-benzimidazole-5-carboxylic acid | 374 | OCHEM
CN1CC[C@@H](NC(=O)Nc2ccc(C#N)cc2)C[C@@H]1c1nc2ccccc2[nH]1 | Glasdegib | 214 | PubChem
Nc1ccccc1S(=O)(=O)N1CCOCC1 | 2-(morpholin-4-ylsulfonyl)aniline | 115 | OCHEM
Fc1ccc(Cn2cncn2)cc1 | 1-(4-Fluorobenzyl)-1H-1,2,4-triazole | 64 | OCHEM
Cc1cc(Cl)n2ncnc2c1 | 5-Chloro-7-methyl[1,2,4]triazolo[1,5-a]pyridine | 94 | OCHEM
Cc1ccc(C)c(C(=O)CCC(=O)O)c1 | 4-(2,5-Dimethylphenyl)-4-oxobutanoic acid | 82 | OCHEM
O=C(O)c1cccc(NS(=O)(=O)c2cc(Cl)ccc2Cl)c1 | 3-[(2,5-Dichlorobenzene-1-sulfonyl)amino]benzoic acid | 218 | OCHEM
Cc1ccccc1NC(=O)CC#N | 2-cyano-N-(2-methylphenyl)acetamide | 134 | OCHEM
Cc1nc2sccn2c1C=O | 6-Methylimidazo[2,1-b][1,3]thiazole-5-carbaldehyde | 95 | OCHEM
OCC(I)CC(F)(F)C(F)(F)C(F)(F)C(F)(F)C(F)(F)C(F)(F)F (stereo not given) | 4,4,5,5,6,6,7,7,8,8,9,9,9-Tridecafluoro-2-iodononan-1-ol | 45 | ChemicalBook
O=Cc1ccc(-c2cccc(Cl)c2Cl)o1 | 5-(2,3-Dichlorophenyl)furan-2-carbaldehyde | 96 | OCHEM
Cc1cc(C(=O)CCC(=O)O)c(C)s1 | 4-(2,5-dimethylthien-3-yl)-4-oxobutanoic acid | 106 | OCHEM
Cn1c(-c2ccccc2)c(C(=O)CC#N)c2ccccc21 | 3-(1-Methyl-2-phenyl-1H-indol-3-yl)-3-oxopropanenitrile | 156 | OCHEM
Cc1ccc(S(N)(=O)=O)cc1C | 3,4-Dimethylbenzenesulfonamide | 118 | OCHEM
S=c1[nH]nc(NC2CCCCC2)s1 | 5-cyclohexylamino-[1,3,4]thiadiazole-2-thiol | 145 | OCHEM
CC1(c2ccncc2)NC(=O)NC1=O (stereo not given) | 5-Methyl-5-(pyridin-4-yl)imidazolidine-2,4-dione | 232 | OCHEM
Cc1c2ccccc2c(CBr)c2ccc3ccccc3c12 | – | 152.5 | PubChem
Cl.Cl.O=C(OCCN1CCCCC1)C(c1ccccc1)N1CCCCC1 (stereo not given) | – | 213 | OCHEM
CN(C)C(=O)CN1CCNCC1 | N,N-dimethyl-2-piperazin-1-yl-acetamide | 36 | OCHEM
O=C(CBr)c1cc2cc(Cl)ccc2o1 | 2-bromo-1-(5-chloro-1-benzofuran-2-yl)ethanone | 169 | OCHEM
O=Cc1ccc(-c2ccccc2[N+](=O)[O-])s1 | 5-(2-Nitrophenyl)thiophene-2-carbaldehyde | 113 | OCHEM
CNc1ccccc1C(=O)OC1CC2(C)C(O)CC3(C)C4(C)CCC5C(C)(CO)C(OC6OCC(OC7OC(CO)C(O)C(O)C7O)C(O)C6OC6OC(CO)C(O)C(O)C6O)CCC5(C)C4CC4OC43C2CC1(C)C=O (stereo not given) | Avenacin A 1 | 230.5 | PubChem
CNC(C)=CC(=O)OC | Methyl 3-(methylamino)but-2-enoate | 61.5 | OCHEM
O=C(OCCc1ccccc1)c1ccccc1 | 2-Phenylethyl benzoate | -8.57 | eChemPortal
CN(CC(=O)O)C(N)=O | Carbamoyl Sarcosine | 142 | OCHEM
NCc1ccn[nH]1 | 1-(1H-Pyrazol-5-yl)methanamine | 59 | OCHEM
CCC(NC(N)=O)C(=O)O (stereo not given) | 2-(carbamoylamino)butanoic Acid | 175 | OCHEM
Cc1cc(N)[nH]c(=O)c1 | 6-Amino-4-methylpyridin-2(1H)-one | 257 | OCHEM
ON=C1CCCCCCC1 | Cyclooctanone, oxime | 36.5 | OCHEM
CC(=O)c1cnc2ccccc2n1 | 2-Acetylquinoxaline | 77.5 | OCHEM
C[N+](C)(CCCCCC[N+](C)(C)C1c2ccccc2-c2ccccc21)C1c2ccccc2-c2ccccc21.[Br-].[Br-] | Hexafluorenium dibromide | 154 | OCHEM
CC(=O)CC(=O)Nc1ccc(Br)cc1 | N-(4-Bromophenyl)-3-oxobutanamide | 138 | OCHEM
Cc1oc(N)c(C#N)c1C | 2-Amino-4,5-dimethyl-3-furonitrile | 166 | OCHEM
Cc1nc(N)oc1C | 4,5-Dimethyloxazol-2-amine | 65 | OCHEM
Nc1ccc2c(c1)CCC(=O)N2 | 6-amino-3,4-dihydroquinolin-2(1H)-one | 171 | OCHEM

3 of these entries, quoted again:

SMILES | name | melting point (°C) | via
O=C(O)CCc1nc2ccccc2[nH]c1=O | 3-Hydroxy-2-quinoxalinepropionic acid | 264 | OCHEM
Cc1nc2sccn2c1C=O | 6-Methylimidazo[2,1-b][1,3]thiazole-5-carbaldehyde | 95 | OCHEM
C[C@]12CC(=O)[C@H]3[C@@H](CCC4=CC(=O)CC[C@@]43C)[C@@H]1CC[C@@H]2C(=O)CO | 21-Hydroxypregn-4-ene-3,11,20-trione | 184 | OCHEM

Data: OPERA 2.9 data sets, kmansouri/OPERA on GitHub.